Consider one compound from patent US11584736B2, “Heterocyclic P2Y14 receptor antagonists” (The United States of America, as represented by the …, priority 2018, dated 2023).

The assay concerns the target T1, hP2Y14R (Homo sapiens, UniProt Q15391).
T1 construct: expressed in transfected cells
T1 sequence (Q15391 1-338): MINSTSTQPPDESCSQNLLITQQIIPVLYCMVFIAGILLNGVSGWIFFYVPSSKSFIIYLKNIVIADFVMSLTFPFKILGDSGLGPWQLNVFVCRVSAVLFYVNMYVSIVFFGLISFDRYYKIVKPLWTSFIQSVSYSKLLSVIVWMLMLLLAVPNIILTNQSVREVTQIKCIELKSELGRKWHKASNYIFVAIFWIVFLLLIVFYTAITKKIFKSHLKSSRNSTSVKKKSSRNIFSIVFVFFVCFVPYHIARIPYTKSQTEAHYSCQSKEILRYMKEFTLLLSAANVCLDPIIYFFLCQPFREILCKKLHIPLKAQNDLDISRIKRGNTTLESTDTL
Kind of assay: Competitive fluorescent binding assay, flow cytometry of whole hP2Y14R-CHO cells. To be noted: Table 1, fluorescent antagonist tracer 20 nM, mean ± SEM (n = 3-5). As to the method:
Cell Culture: Chinese hamster ovary cells stably expressing the hP2Y14—R (CHO-hP2Y14R) were grown in Dulbecco's Modified Eagle's Medium (DMEM)/Ham's F12 (F12) 1:1 supplemented with 10% FBS, 100 units/mL penicillin, […] streptomycin, 2 mM L-glutamine and 0.500 mg/mL G418 Sulfate (Geneticin). Cells were maintained in a humidified atmosphere and sterile incubation conditions held at 37° C. and 5% CO2 (g).
Competitive Assay: Competitive fluorescent assays were performed on a BD FACSCalibur flow cytometer in conjunction with the softwares BD Bioscience PlateManager and CellQuest. All cell culture growth and assays for this procedure were conducted on flat-bottom 96-well plates. CHO-hP2Y14R cells were grown to approximately 80-90% confluency prior to assays. The 96-well plate format enabled four compounds to be analyzed in triplicate per run. All unlabeled ligand compounds are stored as 5 mM stock solutions in dimethyl sulfoxide (DMSO). Serial dilutions of each compound were prepared in complete medium. Cells were initially incubated with unlabeled compounds for 30 min at 37° C. and 5% CO2 (g). […]
IC50 values were determined from the gathered data with the program GraphPad Prism version 7.0.

Turning to `O=C(O)c1cc(-c2ccc(C3=CCNCC3)cc2)c2ccc(-c3ccc(C(F)(F)F)cc3)cc2c1` [Compound 3, 4-(4-(1,2,3,6-Tetrahydropyridin-4-yl)phenyl)-7-(4-(trifluoromethyl)phenyl)-2-naphthoic acid], the IC50 was determined as 18 ± 2 nM.
